Laboratory results reported in US8853281B2, “Cysteine protease inhibitors” (Medivir UK Ltd, priority 2008, dated 2014).

Protein sequences, listed by entry. Tags and fused reporters are not part of them. Residues count along the entry.
UniProt P07711, 114-333 limits assumed: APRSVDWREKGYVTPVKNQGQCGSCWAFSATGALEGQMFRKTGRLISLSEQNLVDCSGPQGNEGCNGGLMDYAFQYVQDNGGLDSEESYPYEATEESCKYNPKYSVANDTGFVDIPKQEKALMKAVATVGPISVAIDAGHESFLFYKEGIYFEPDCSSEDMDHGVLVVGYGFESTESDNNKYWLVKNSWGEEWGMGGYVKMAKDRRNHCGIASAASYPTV
UniProt P43235, 115-329 limits assumed: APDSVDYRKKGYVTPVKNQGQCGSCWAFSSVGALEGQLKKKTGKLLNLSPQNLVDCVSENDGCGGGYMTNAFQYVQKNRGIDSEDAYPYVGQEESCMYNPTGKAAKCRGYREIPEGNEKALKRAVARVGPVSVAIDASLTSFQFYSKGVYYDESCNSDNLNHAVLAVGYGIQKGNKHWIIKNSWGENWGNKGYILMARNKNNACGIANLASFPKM
UniProt P25774, 115-331 limits assumed: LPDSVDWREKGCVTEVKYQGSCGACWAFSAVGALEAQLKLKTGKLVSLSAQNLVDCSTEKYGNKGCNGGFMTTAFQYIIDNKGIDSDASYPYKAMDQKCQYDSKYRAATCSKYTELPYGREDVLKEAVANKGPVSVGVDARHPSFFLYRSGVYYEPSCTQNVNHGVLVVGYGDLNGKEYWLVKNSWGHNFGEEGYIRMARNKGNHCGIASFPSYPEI

Key:
human cathepsin L = human cathepsin L (Homo sapiens, UniProt P07711); assay: Cathepsin L Ki (H-D-Val-Leu-Lys-AMC substrate); conditions: read-out: Ki Cat. L; human cathepsin L 5 nM, sodium acetate pH 5.5
Description: The procedure above with the following amendments is used for the determination of Ki for cathepsin L.
The enzyme is commercially available human cathepsin L (for example Calbiochem). The substrate is H-D-Val-Leu-Lys-AMC available from Bahcem. The assay buffer is 100 mM sodium acetate 1 mM EDTA, pH5.5) The DMSO stock (10 mM in 100% DMSO) is diluted to 10% in assay buffer. Enzyme is prepared at 5 nM concentration in assay buffer plus 1 mM dithiothreitol just before use. 2 ul of 10 mM inhibitor made up in 100% DMSO is dispensed into row A. 10 μl of 50 μM substrate (= 1/200 dilution of 10 mM stock in DMSO, diluted in assay buffer).
Potential inhibitors are screened using the above assay with variable concentrations of test compound. Reactions were initiated by addition of enzyme to buffered solutions of substrate and inhibitor. Ki values were calculated according to equation 1.
[formula] where v0 is the velocity of the reaction, V is the maximal velocity, S is the concentration of substrate with Michaelis constant of KM, and I is the concentration of inhibitor.

cathepsin K = cathepsin K (Homo sapiens, UniProt P43235); assay: Determination of cathepsin K proteolytic catalytic activity (H-D-Ala-Leu-Lys-AMC fluorogenic substrate); conditions: read-out: Ki Cat. K; human recombinant enzyme 5 nM, ambient temperature
Description: Determination of Cathepsin K Proteolytic Catalytic Activity
Convenient assays for cathepsin K are carried out using human recombinant enzyme, such as that described in PDB.
DE Homo sapiens cathepsin K (pycnodysostosis), mRNA (cDNA clone MGC:23107
The recombinant cathepsin K can be expressed in a variety of commercially available expression systems including E coli, Pichia and Baculovirus systems. The purified enzyme is activated by removal of the prosequence by conventional methods.
Standard assay conditions for the determination of kinetic constants used a fluorogenic peptide substrate, typically H-D-Ala-Leu-Lys-AMC, and were determined in either 100 mM Mes/Tris, pH 7.0 containing 1 mM EDTA and 10 mM 2-mercaptoethanol or 100 mMNa phosphate, imM EDTA, 0.1% PEG4000 pH 6.5 or 100 mM Na acetate, pH 5.5 containing 5 mM EDTA and 20 mM cysteine, in each case optionally with […] as stabiliser. The enzyme concentration used was 5 nM. The stock substrate solution was prepared at 10 mM in DMSO. […] Product fluorescence (excitation at 390 nm, emission at 460 nm) was monitored with a Labsystems Fluoroskan Ascent fluorescent plate reader. […]
(§1) Potential inhibitors are screened using the above assay with variable concentrations of test compound. […] Ki values were calculated according to equation 1. […]

human cathepsin S = human cathepsin S (Homo sapiens, UniProt P25774); assay: Cathepsin S Ki determination (boc-Val-Leu-Lys-AMC fluorescent substrate); conditions: read-out: Ki Cat. S; baculovirus-expressed human cathepsin S 2 nM, pH 6.5, competitive inhibition fit
Description: Cathepsin S Ki Determination
The assay uses baculovirus-expressed human cathepsin S and the boc-Val-Leu-Lys-AMC fluorescent substrate available from Bachem in a 384 well plate format, in which 7 test compounds can be tested in parallel with a positive control comprising a known cathepsin S inhibitor comparator.
280 μl/well of 12.5% DMSO are added to rows B-H of two columns of a 96 deep well polypropylene plate. 70 μl/well of substrate is added to row A. 2×250 μl/well of assay buffer (100 mM Na phosphate, 100 mM NaCl, pH 6.5) is added to row A, mixed, and double diluted down the plate to row H. […]
The first test compound prepared in DMSO is added to column 1 of the top row, typically at a volume to provide between 10 and 30 times the initially determined rough Ki. […] Add 90 μl assay buffer containing 1 mM DTT and 2 nM cathepsin S to each well of rows B-H and 180 μl to row A. Mix row A using a multichannel pipette and double dilute to row G. Mix row H and read in the fluorescent spectrophotometer. […]
Using the a distributor such as a Multidrop 384, add 30 μl/well to all wells of the assay plate and read in fluorescent spectrophotomoter such as an Ascent. […]
as §1

Ki (human cathepsin L): 1000 nM
Ki (cathepsin K): 1400 nM
Ki (human cathepsin S): 0.75 nM
SMILES: O=C(NC1CC1)C(=O)C1(NC(=O)[C@H](CC2(F)CCCC2)NC(=O)c2ccc(O)c(F)c2)CCC1
